1 compound from PubChem BioAssay AID1508591 can be followed below.

For this data set the following is noted: rat; liver microsomes; pH 7.4; 15.0 min; 1.0 µM. For orientation: Liver microsomes are vesicles of endoplasmic reticulum, rich in cytochrome P450 enzymes.

Some results for these compounds are left out of this collection, so the calls shown say nothing about other tests.

Broadly, the half-life is how long it takes for the measured level to halve. Low values mean fast loss, high ones slow loss. `O=C(C1CCC1)N1CCN(C/C=C/c2ccccc2)CC1`: the half-life stood at 14 min.
